## Measured vapor pressure values of organic chemicals

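The OPERA project collected these measurements from public sources as training and test data for property models. One number stands for a compound and property, with no spread given. Method and conditions are not stated for these values. Where a salt, mixture or single isomer is drawn, the source does not say that exactly this form was tested. Unmarked limits or estimates from the upstream databases cannot be ruled out.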

Vapor pressure is log10 of mmHg; the set covers 15 to 30 °C, mostly 20 to 25 °C. Cells with "n/a" have no entry in this list.

structure (SMILES),name,log vapor pressure (log10 mmHg)
CCc1nn(C)c(C(=O)NCc2ccc(Oc3ccc(C)cc3)cc2)c1Cl,Tolfenpyrad,-8.426
Clc1cc2oc3cc(Cl)c(Cl)cc3c2cc1Cl,n/a,-5.245
Nc1cc(Cl)ccc1Cl,"2,5-Dichloroaniline",-0.727
COC(=O)[N-]S(=O)(=O)c1ccc(N)cc1.[Na+],Asulam-sodium,-8.426
CC(=O)O[C@H]1CC[C@@]2(C)C(=CC[C@@H]3[C@@H]2CC[C@]2(C)C(=O)CC[C@@H]32)C1,Dehydroepiandrosterone 3-acetate,-8.287
CCCCCCCCCC(=O)OOC(=O)CCCCCCCCC,"Peroxide, bis(1-oxodecyl)",-3.303
CCOCn1c(-c2ccc(Cl)cc2)c(C#N)c(Br)c1C(F)(F)F,n/a,-7.133
CC(C)(C)c1cc(C(C)(C)C)c2op(OCCN(CCOp3oc4c(C(C)(C)C)cc(C(C)(C)C)cc4c4cc(C(C)(C)C)cc(C(C)(C)C)c4o3)CCOp3oc4c(C(C)(C)C)cc(C(C)(C)C)cc4c4cc(C(C)(C)C)cc(C(C)(C)C)c4o3)oc3c(C(C)(C)C)cc(C(C)(C)C)cc3c2c1,n/a,-12.82
CC(c1ccc(O)cc1)(c1ccc(O)cc1)c1ccc(O)cc1,"4,4',4''-Ethane-1,1,1-triyltriphenol",-8.427
S=C1NCCN1,"4,5-Dihydro-2-mercaptoimidazole",-0.501
C/C=C/C1C(C(=O)OCc2c(F)c(F)c(COC)c(F)c2F)C1(C)C (stereo partly drawn),Metofluthrin,-5.149
C=CC(=O)OC(C)(C)C,tert-Butyl acrylate,1.176
CC(C)CC(=O)Cl,"Butanoyl chloride, 3-methyl-",1.242
CCC(C)c1cc([N+](=O)[O-])cc([N+](=O)[O-])c1O (stereo not drawn),Dinoseb,-4.297
CC(C)Nc1ccc(Nc2ccccc2)cc1,N-Isopropyl-N'-phenyl-p-phenylenediamine,-4.28
Clc1ccc(-c2c(Cl)cc(Cl)cc2Cl)cc1,n/a,-3.943
CCOP(=S)(OCC)SCn1c(=O)oc2cc(Cl)ccc21,Phosalone,-6.932
C=C(C)C(=O)OCC(F)(F)C(F)C(F)(F)F (stereo not drawn),"1H,1H,3H-Perfluorobutyl 2-methylacrylate",1.112
CNP(=O)(OC)Oc1ccc(C(C)(C)C)cc1Cl (stereo not drawn),Crufomate,-3.1
COP(=S)(OC)Oc1ccc(S(=O)(=O)N(C)C)cc1,Famphur,-5.866
C=C(C)C1CC=C(C=O)CC1 (stereo not drawn),Perillaldehyde,-1.334
COC(=O)Cc1ccccc1,Methyl phenylacetate,-0.896
CCCCCCCCCCCOC(=O)c1ccccc1C(=O)OCCCCCCCCCCC,Diundecyl phthalate,-8.001
O=P(N1CCOCC1)(N1CCOCC1)N1CCOCC1,Trimorpholinophosphine oxide,-8.013
C=CCc1cc(C(C)(C)c2ccc(O)c(CC=C)c2)ccc1O,"4,4'-Isopropylidenebis(2-allylphenol)",-6.39
CCN=C=NCCCN(C)C.Cl,1-Ethyl-3-(3'-dimethylaminopropyl)carbodiimide hydrochloride,-4.736
O=C(O)C(F)(F)C(F)(F)F,Perfluoropropanoic acid,1.536
CCC(Cl)[N+](=O)[O-] (stereo not drawn),1-Chloro-1-nitropropane,0.763
O=C(Cc1ccccc1)OCc1ccccc1,Benzyl phenylacetate,-3.858
C=CCCC(=O)Cl,4-Pentenoyl chloride,1.009
OCC1CN2CCN1CC2 (stereo not drawn),"1,4-Diazabicyclo[2.2.2]octane-2-methanol",-2.034
COc1cc(OC)nc(Sc2cccc(Cl)c2C(=O)[O-])n1.[Na+],Pyrithiobac sodium,-10.44
COc1c(Cl)cc(Cl)cc1Cl,"Benzene, 1,3,5-trichloro-2-methoxy-",-3.265
CCOP(=O)(N=C1SCC(C)S1)OCC (stereo not drawn),Mephosfolan,-4.498
CC1(C(=O)Nc2ccc(O)c(Cl)c2Cl)CCCCC1,Fenhexamid,-8.523
O=C([O-])CP(=O)([O-])O[O-].[Na+].[Na+].[Na+],"Acetic acid, 2-hydroxy-2-phosphono-, sodium salt (1:3)",-6.87
CCSC(C)CC1CC(=O)C(C(CC)=NOC/C=C/Cl)=C(O)C1 (stereo partly drawn),Clethodim,-7.807
CC(C)N(C(C)C)P(OCCC#N)N(C(C)C)C(C)C,n/a,-3.356
O=C1NC(=O)N(Cc2ccccc2)C(=O)C1c1ccccc1 (stereo not drawn),"2,4,6(1H,3H,5H)-Pyrimidinetrione, 5-phenyl-1-(phenylmethyl)-",-8.782
C=CC(=O)OCCN=C=O,"2-Propenoic acid, 2-isocyanatoethyl ester",0.547
CCN(CCCl)c1ccc(C=O)cc1,p-((2-Chloroethyl)ethylamino)benzaldehyde,-5.156
NNC(=O)NN,Carbonic dihydrazide,-6.268
FC(F)OC(F)(F)C(F)Cl (stereo not drawn),Enflurane,2.243
N#Cc1ccc(N)cc1,"Benzonitrile, 4-amino-",-4.643
CC(=O)O.CC(=O)O.CC(=O)O.N=C(N)NCCCCCCCCNCCCCCCCCNC(=N)N,Iminoctadine triacetate,-5.523
COC(F)(F)C(F)C(F)(F)F (stereo not drawn),"1,1,1,2,3,3-Hexafluoro-3-methoxypropane",2.425
Brc1ccc(Oc2ccccc2Br)c(Br)c1,"2,2',4-Tribromodiphenyl ether",-4.81
CCn1cc(C(=O)O)c(=O)c2cc3c(cc21)OCO3,Oxolinic acid,-5.959
CCCSC(=O)Cl,S-(Propyl) chlorothioformate,0.797
F/C(=C(/F)C(F)(C(F)(F)F)C(F)(F)F)C(F)(F)F,(E)-Perfluoro(4-methyl-2-pentene),2.41
Clc1cc(Cl)c(-c2ccccc2Cl)cc1Cl,n/a,-3.408
CN1[C@@H]2C[C@@H](OC(=O)[C@H](CO)c3ccccc3)C[C@H]1[C@@H]1O[C@@H]12,Scopolamine,-6.813
Clc1ccc(C(Cl)(Cl)Cl)cc1,4-Chlorobenzotrichloride,-1.523
FC(F)(F)N1C(F)(F)C(F)(F)OC(F)(F)C1(F)F,Perfluoro(N-methylmorpholine),2.338
O=[N+]([O-])c1ccc(Oc2ccc(Cl)cc2Cl)cc1,Nitrofen,-5.1

Excerpt, the opening 9 entries:

structure (SMILES)	name	log vapor pressure (log10 mmHg)
CCc1nn(C)c(C(=O)NCc2ccc(Oc3ccc(C)cc3)cc2)c1Cl	Tolfenpyrad	-8.426
Clc1cc2oc3cc(Cl)c(Cl)cc3c2cc1Cl	n/a	-5.245
Nc1cc(Cl)ccc1Cl	2,5-Dichloroaniline	-0.727
COC(=O)[N-]S(=O)(=O)c1ccc(N)cc1.[Na+]	Asulam-sodium	-8.426
CC(=O)O[C@H]1CC[C@@]2(C)C(=CC[C@@H]3[C@@H]2CC[C@]2(C)C(=O)CC[C@@H]32)C1	Dehydroepiandrosterone 3-acetate	-8.287
CCCCCCCCCC(=O)OOC(=O)CCCCCCCCC	Peroxide, bis(1-oxodecyl)	-3.303
CCOCn1c(-c2ccc(Cl)cc2)c(C#N)c(Br)c1C(F)(F)F	n/a	-7.133
CC(C)(C)c1cc(C(C)(C)C)c2op(OCCN(CCOp3oc4c(C(C)(C)C)cc(C(C)(C)C)cc4c4cc(C(C)(C)C)cc(C(C)(C)C)c4o3)CCOp3oc4c(C(C)(C)C)cc(C(C)(C)C)cc4c4cc(C(C)(C)C)cc(C(C)(C)C)c4o3)oc3c(C(C)(C)C)cc(C(C)(C)C)cc3c2c1	n/a	-12.82
CC(c1ccc(O)cc1)(c1ccc(O)cc1)c1ccc(O)cc1	4,4',4''-Ethane-1,1,1-triyltriphenol	-8.427

Data: OPERA 2.9 data sets, kmansouri/OPERA on GitHub.